Patent US20130330358A1, “CRYSTAL STRUCTURE AND PEPTIDE INHIBITORS OF HAUSP DEUBIQUITINASE” (priority 2011, published 2013)

Target: HAUSP TRAF domain (HAUSP^62-205) (human)
Assay: ITC, titration against HAUSP TRAF domain, 20 °C

## EGASTSGM (modifications not checked) [vIRF4^209-216 peptide]
  Kd: 9.57 µM
